Measurements as given in publication PMC4908412, “β-arrestin-1 contributes to brown fat function and directly interacts with PPARα and PPARγ” (Scientific Reports, 2016).

How the values were obtained:
[1] = target: T1, PPARγ-ligand binding domain (amino acids 204–477) (human, UniProt P37231-2 204-477, biotinylated for biolayer interferometry; 15N-labeled for NMR); assay: BLI; Octet Red 96; 50 μg/ml biotinylated PPARα-LBD or PPARγ-LBD (or their mutants) immobilised on streptavidin biosensors; analyte β-arrestin-1, βarr1M or peptides in solution (single 2 μM or serial dilutions, β-arrestin-1 0.5–32 μM); 25 °C; 2:1 heterogeneous ligand model and steady-state analysis; conditions: both partners purified
T1 construct: The His tag is used for capture in the pulldown; also called PPARγ-LBD; wild-type PPARγ; source: E. coli BL21 (DE3)-CodonPlus, purified; not shown: His6, N-terminal, kept
T1 sequence (looked up): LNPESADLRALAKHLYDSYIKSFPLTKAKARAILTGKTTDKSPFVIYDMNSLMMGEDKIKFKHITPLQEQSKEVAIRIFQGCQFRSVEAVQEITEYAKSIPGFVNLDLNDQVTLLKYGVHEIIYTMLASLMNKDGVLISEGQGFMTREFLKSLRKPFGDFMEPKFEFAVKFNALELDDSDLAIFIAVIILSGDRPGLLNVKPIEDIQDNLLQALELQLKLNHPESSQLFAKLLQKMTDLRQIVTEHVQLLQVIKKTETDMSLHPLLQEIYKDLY

[2] = target: T1, PPARγ-ligand binding domain (amino …); assay: as above; conditions: both partners purified; remark: listed apart in the source

KD1 (2:1 HL model) [1]: 2.66 µM
KD2 (2:1 HL model) [1]: 0.21 µM
maximum response [2]: 0.77 nm
B1: β-arrestin-1 (recombinant rattus β-arrestin-1) (natural protein, UniProt P29066 1-418, looked up)
chain: MGDKGTRVFKKASPNGKLTVYLGKRDFVDHIDLVDPVDGVVLVDPEYLKERRVYVTLTCAFRYGREDLDVLGLTFRKDLFVANVQSFPPAPEDKKPLTRLQERLIKKLGEHAYPFTFEIPPNLPCSVTLQPGPEDTGKACGVDYEVKAFCAENLEEKIHKRNSVRLVIRKVQYAPERPGPQPTAETTRQFLMSDKPLHLEASLDKEIYYHGEPISVNVHVTNNTNKTVKKIKISVRQYADICLFNTAQYKCPVAMEEADDTVAPSSTFCKVYTLTPFLANNREKRGLALDGKLKHEDTNLASSTLLREGANREILGIIVSYKVKVKLVVSRGGLLGDLASSDVAVELPFTLMHPKPKEEPPHREVPESETPVDTNLIELDTNDDDIVFEDFARQRLKGMKDDKDEEDDGTGSPHLNNR
notes: β-arrestin-1, rat (rattus), recombinant; also called βarr1; wild-type β-arrestin-1
